The list shows a part of the results, in another mix than the full data. Some of these compounds have results that are not shown, active ones among them. Activity calls are given as the source filed them.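 How the source made its calls: active means share of bacteria positive for the green fluorescent reporter and its mean brightness both inhibited by 50% or more; inactive means the rest, inconclusive results apart.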

The experiment can be described thus: blockers of AIP-driven agr signalling in S. aureus – RNAIII-GFP reporter, flow cytometry, primary screen (AID 527).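 Further: 0% = AIP-stimulated control and 100% = unstimulated bacteria without AIP.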 As to conditions: S. aureus RN6390 RNAIII-GFP reporter, AIP-induced, flow cytometry 3 h; at 2 µM; stronger effect = higher value. Background: Flow cytometry measures light scatter and fluorescence of single cells or particles in a stream.
As usually defined, the inhibition is the percentage by which the read-out fell short of the control. On to `O=C(OC1CN2CCC1CC2)C(CO)(c1ccccc1)c1ccccc1` (stereo unspecified), for which the inhibition was inactive: 0.2%.

For the origin of these results see PubChem BioAssay AID527 (NMMLSC, 2006).
